{"source": "paper PMC11433870", "about": "“Neurotoxicity, Neuroprotection, In Vitro MAOA/MAOB Inhibitory Activity Assessment, Molecular Docking, and Permeability Assay Studies of Newly Synthesized Hydrazones Containing a Pyrrole Ring” (Molecules, 2024)", "conditions": "pH 7.4, 4 h, 25 °C", "data": [{"smiles": "CCOC(=O)c1cc(-c2ccc(Br)cc2)n(CCC(=O)NN=Cc2ccc(N(C)C)cc2)c1C", "note": "[8a]", "values": [{"measurement": "PAMPA BBB permeability class", "result": "medium (When 6 < −logPe < 5, the compound was classified as medium permeable)"}]}, {"smiles": "CCOC(=O)c1cc(-c2ccc(Br)cc2)n(CCC(=O)NN=Cc2ccc(OC)cc2OC)c1C", "note": "[8e]", "values": [{"measurement": "PAMPA BBB permeability class", "result": "medium (When 6 < −logPe < 5, the compound was classified as medium permeable)"}]}]}
